For orientation: Ki means a dissociation constant, usually derived from enzyme kinetics or from competition with a known ligand.

Chains of the proteins cited; added tags and fusions are not shown. Lines headed by an entry give the natural chain unless they say otherwise; changes in a name come on top.
UniProt P41145: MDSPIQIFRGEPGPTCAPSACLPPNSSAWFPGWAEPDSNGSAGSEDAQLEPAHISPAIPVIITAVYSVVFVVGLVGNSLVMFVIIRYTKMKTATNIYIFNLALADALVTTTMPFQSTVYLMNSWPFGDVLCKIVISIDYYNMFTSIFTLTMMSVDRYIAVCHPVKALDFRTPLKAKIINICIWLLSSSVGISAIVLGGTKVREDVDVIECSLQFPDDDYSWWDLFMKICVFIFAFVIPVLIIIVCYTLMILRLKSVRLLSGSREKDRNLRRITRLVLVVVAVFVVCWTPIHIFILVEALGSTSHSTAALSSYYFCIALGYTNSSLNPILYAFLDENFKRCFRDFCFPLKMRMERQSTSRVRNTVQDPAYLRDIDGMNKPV

The test has as its target T1, human kappa opioid receptor (Homo sapiens, UniProt P41145).
T1 construct: expressed in transfected cells; host or cells: CHO cells
In words: biochemical. The format is binding.

Molecules are shown by their SMILES.

With `COc1ccc2c3c1O[C@H]1[C@@H](O)C=C[C@H]4[C@@H](C2)N(C)CC[C@@]341` [Codeine, codeine, reference compound], the affinity, expressed as Ki, was 28.1 µM.

These data come from patent publication US20130023553A1, “PEGYLATED OPIOIDS WITH LOW POTENTIAL FOR ABUSE AND SIDE EFFECTS” (Nektar Therapeutics, priority 2010, published 2013).
